Measured values taken from patent publication US20220002435A1 (IMMUNOME, published 2022).

Key:
[1] = target: T1, human EPN1 expressed by human cell lines (human, UniProt Q9Y6I3 1-576); assay: flow cytometry, MRC5 cells (human normal line)
T1 construct: Endogenous EPN1 of human tumour and normal cell lines, stained on live cells or on fixed and permeabilised cells, or immunoprecipitated; The cell lines were not engineered to express it; also called surface EPN1; huEPN1
T1 sequence: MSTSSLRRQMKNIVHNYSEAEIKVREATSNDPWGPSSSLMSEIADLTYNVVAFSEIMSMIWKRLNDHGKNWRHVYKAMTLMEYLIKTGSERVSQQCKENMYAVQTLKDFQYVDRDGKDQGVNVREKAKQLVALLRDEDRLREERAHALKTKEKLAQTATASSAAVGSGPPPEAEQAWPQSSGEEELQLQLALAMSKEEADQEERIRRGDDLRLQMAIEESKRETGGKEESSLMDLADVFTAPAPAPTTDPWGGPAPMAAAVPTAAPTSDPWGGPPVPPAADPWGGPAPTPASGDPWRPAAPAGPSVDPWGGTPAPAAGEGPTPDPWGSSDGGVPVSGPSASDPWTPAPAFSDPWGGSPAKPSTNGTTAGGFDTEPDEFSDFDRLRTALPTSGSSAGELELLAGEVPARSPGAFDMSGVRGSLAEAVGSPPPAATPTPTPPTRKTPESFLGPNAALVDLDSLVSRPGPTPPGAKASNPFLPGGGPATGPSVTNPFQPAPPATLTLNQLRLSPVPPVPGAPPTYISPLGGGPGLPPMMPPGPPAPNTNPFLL

[2] = target: T1, human EPN1 expressed by human cell lines; assay: flow cytometry on intact cells (lower end; corresponds to A549)
Source text: Binding of IMM20059 to intact cells was detected with fluorophore-labelled anti-human secondary antibodies.
Full-length IgG1 antibody, containing the PR045-2H11 Ab VH and VL domains, was expressed recombinantly by transient transfection into mammalian cell lines, such as Chinese Hampster Ovary (CHO) and human embryonic kidney (HEK), or derivatives of those cell lines, using standard conditions. The recombinant antibody, referred to as IMM20059, was purified from conditioned media by affinity chromatography, buffer exchanged into PBS and analyzed for activity by flow cytometry. […] IMM20059 binds, to varying degrees, to the surfaces of cells included in a panel of human cancer cells, immortalized normal human cell lines, and mouse tumor lines (Table 1).

[3] = target: T1, human EPN1 expressed by human cell lines; assay: flow cytometry, 786o cells (human tumor line)
[4] = target: T1, human EPN1 expressed by human cell lines; assay: flow cytometry, A549 cells (human tumor line)
[5] = target: T1, human EPN1 expressed by human cell lines; assay: flow cytometry, WM1366 cells (human tumor line)
[6] = target: T2, recombinant EPN1 (Origene, cat #TP307099) (human, UniProt Q9Y6I3 1-576); assay: SPR, IMM20059 captured at 450 RU on CM5/Protein A, EPN1 in solution, 1:1 model, 25° C., average of three tests
T2 construct: Bought protein; also called Epsin-1; Epsin 1
T2 sequence: T1 sequence
Experimental: The strength of the interaction with recombinant EPN1 was further defined by surface plasmon resonance on a BIAcore2000 at 25° C. in standard running buffer (10 mM HEPES, 150 mM NaCl, 0.005% Tween-20, 0.2 mg/mL BSA, pH 7.4). Protein A surfaces were regenerated between binding cycles with 150 mM phosphoric acid. IMM20059, or an isotype control, were captured on CM5/Protein A sensor surface to generate binding and control surfaces; IMM20059 was captured at approximately 200 and 450 RU, the isotype control was captured to a density of approximately 600 RU. Binding of recombinant EPN1 to each of the three surfaces was tested, in triplicate, using a three-fold dilution series starting with 33.3 nM as the highest concentration. […] Double-subtracted data obtained from the binding measured against the 450 RU IMM20059 surface was fit to a 1:1 binding model.

[7] = target: T3, EPN3 on the CDI HuProt native array (human, UniProt Q9H201 1-632, limits assumed); assay: CDI HuProt native protein microarray (High-Spec cross-reactivity assay)
T3 sequence (looked up): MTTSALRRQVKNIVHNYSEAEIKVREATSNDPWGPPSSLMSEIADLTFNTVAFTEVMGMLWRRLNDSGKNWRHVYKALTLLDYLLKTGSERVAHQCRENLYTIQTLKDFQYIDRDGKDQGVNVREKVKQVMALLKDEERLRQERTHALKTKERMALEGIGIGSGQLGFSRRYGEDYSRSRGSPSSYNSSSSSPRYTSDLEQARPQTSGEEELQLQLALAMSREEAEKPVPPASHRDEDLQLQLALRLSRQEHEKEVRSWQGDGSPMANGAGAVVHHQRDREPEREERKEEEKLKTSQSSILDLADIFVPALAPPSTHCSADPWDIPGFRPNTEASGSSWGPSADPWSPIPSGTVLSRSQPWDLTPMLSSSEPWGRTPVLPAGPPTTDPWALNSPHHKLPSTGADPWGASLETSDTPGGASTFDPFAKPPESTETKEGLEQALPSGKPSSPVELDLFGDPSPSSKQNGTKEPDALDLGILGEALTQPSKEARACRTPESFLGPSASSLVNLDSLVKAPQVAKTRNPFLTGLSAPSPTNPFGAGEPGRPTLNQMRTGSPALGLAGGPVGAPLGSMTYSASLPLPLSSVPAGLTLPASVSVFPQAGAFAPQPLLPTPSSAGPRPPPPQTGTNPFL
Experimental: IMM20059 was then screened using the CDI Human Proteome (HuProt) microarry-based High-Spec antibody cross-reactivity assay. In the assay, proteins corresponding to approximately 80% of the human proteome were spotted in native format onto microarrays and used to probe specificity of IMM20059. More specifically, IMM20059 (1 μg/mL) was incubated overnight at 4° C. against the native CDI HuProt array, with EPN1 (Origene, cat #TP307099) added to the array as an additional control. Slides were washed and IMM20059 binding was detected with an Alexa-647 conjugated anti-H+L secondary antibody. Non-specific hits that were bound by the secondary were eliminated from any analysis. Selective binding to target proteins were analyzed by a combination of overall signal intensity, Z-score to determine reproducibility of binding to replicates on each slide, and S-score to determine difference in selectivity versus possible targets. An S-score >3 between the top and second-ranked hits is considered as indicative of specificity for the top hit.

[8] = target: T1, human EPN1 expressed by human cell lines; assay: flow cytometry, SCC15 cells (human tumor line)

B1: IMM20059 (antibody, human IgG1, kappa, V domains shown)
VH: EVQLVESGGGLVQPGGSLRLSCAASGFTFSIHSLNWVRQAPGKGLEWVSYISSNSTTIYYADSVKGRFTISRDNAKDSLYLQMNSLRDEDTAVYYCARDYYCTGGTCFFLPDLWGRGALVTVSS
VL: EIVLTQSPATLSLSPGERATLSCRASQNISNFLAWYQHKPGQAPRLLIYDASIRATGIPARFSGSGSGTDFSLTISSLEPEDFAVYFCQQRYNWLTFGGGTKVEIKR
[1]
  MFI (fold mean fluorescence index above isotype control): 9 fold
[2]
  EC50: 6 to 9 nM
[3]
  MFI (fold mean fluorescence index above isotype control): 7 fold
[4]
  MFI (fold mean fluorescence index above isotype control): 8 fold
[5]
  MFI (fold mean fluorescence index above isotype control): 17 fold
[6]
  Kd: 0.95 nM
  koff: 0.00072 s⁻¹
  kon: 760000 M⁻¹ s⁻¹
[7]
  binding result: no binding (tested: 1 µg/mL IMM20059)
[8]
  MFI (fold mean fluorescence index above isotype control): 5 fold
